High-throughput results deposited in PubChem BioAssay by ICCB-Longwood Screening Facility, Harvard Medical School.
Many of the other results were omitted from the sample, so hits are more common in it than they were.
GIV-Gai inh: inhibitors of GIV peptide binding to Galpha-i3, primary screen, biochemical, fluorescence polarization, FITC-GIV GBA peptide, rat Galphai3 | Guanine nucleotide-binding protein G(i) subunit alpha-3 (Rattus norvegicus), P08753 | 90 min; active compounds read low; scaled: aluminum fluoride 0%, vehicle 100% | 210,000 tested, 0.42% active | AID 1224905, 2016 | percent of control (FP), % (no concentration beside the values);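 active means replicate mean at 85% of control or lower, very high polarization wells dropped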;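 further: wells of about 15 µL received 100 nL stock; the first replicate is given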
GIV-Gai FP conf: inhibitors of GIV peptide binding to Galpha-i3, confirmation, biochemical, fluorescence polarization, FITC-GIV peptide, rat Galphai3 | shares compounds with GIV-Gai inh | stronger effect = lower value | fluorescence polarization, mP at 100 µM | hit rate 38% among 580;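 active = inhibition score of 15 or more, meaning 100 minus mean polarization as percent of control over three replicates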
GIV-Gai AS conf: inhibitors of GIV binding to Galpha-i3, confirmation, orthogonal assay for GIV-Galpha-i inhibitor project, biochemical, AlphaScreen, His-GIV, GST-Galphai3 | AlphaScreen counts at 100 µM | purified proteins, 90 min; stronger effect = lower value | shares compounds with GIV-Gai inh | hit rate 39% among 580 | AID 1259351, 2017;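 active = inhibition score at or above a set limit, where the score is 100 minus the three-replicate mean percent of control signal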
Active calls of the source: *.

By UniProt entry, the sequences of proteins in these tests, tags left out.
Guanine nucleotide-binding protein G(i) subunit alpha-3 (Rattus norvegicus), P08753, UniProt P08753, whole entry, looked up: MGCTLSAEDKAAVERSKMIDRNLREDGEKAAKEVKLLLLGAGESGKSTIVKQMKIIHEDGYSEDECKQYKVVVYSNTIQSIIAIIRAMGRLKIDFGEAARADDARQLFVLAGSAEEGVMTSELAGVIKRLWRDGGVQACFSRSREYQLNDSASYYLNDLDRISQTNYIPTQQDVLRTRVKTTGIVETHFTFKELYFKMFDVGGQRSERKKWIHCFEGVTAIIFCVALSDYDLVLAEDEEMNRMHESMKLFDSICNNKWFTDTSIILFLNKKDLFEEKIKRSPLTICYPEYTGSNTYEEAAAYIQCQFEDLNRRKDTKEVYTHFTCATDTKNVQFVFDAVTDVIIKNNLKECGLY

Preview (2 entries):
SMILES	GIV-Gai inh	others
Cc1nn(-c2ccc3nnc(C)n3n2)c(C)c1CCC(=O)NCCN1CCOCC1	99.5
CCC(Sc1nnc2c3ccccc3nc(-c3ccccc3)n12)C(=O)NC(C)C (configuration not stated)	98.6

Results (from the top)
SMILES	GIV-Gai inh	others
Cc1nn(-c2ccc3nnc(C)n3n2)c(C)c1CCC(=O)NCCN1CCOCC1	99.5
CCC(Sc1nnc2c3ccccc3nc(-c3ccccc3)n12)C(=O)NC(C)C (configuration not stated)	98.6
O=C(Nc1ccc2c(c1)OCO2)c1cc(-c2cccnc2)on1	100.1
CCc1ccc(N=C2NC(=O)/C(=C/c3cc(C)n(CC)c3C)S2)cc1	118.8
O=C1NC(=Nc2ccccc2)S/C1=C/c1cc(Br)ccc1O	106.6
Cc1cc(/C=C2\SC(=Nc3ccccc3)NC2=O)c(C)n1-c1ccccc1	89.7	GIV-Gai FP conf=70.9;GIV-Gai AS conf=42209
O=C(NCCN1CCc2ccccc2C1)c1cc(-c2ccc(Br)s2)nc2ccccc12	109.8
CCCCN(C)CCCNC(=O)c1cc(-c2ccc(Br)s2)nc2ccccc12	105.9
CC(C)CCNC(=O)c1cc(-c2ccc(Br)s2)nc2ccccc12	90.9	GIV-Gai FP conf=86.2;GIV-Gai AS conf=34180
COCCNC(=O)Cc1ccc(-n2c(=O)c3ccccc3n(CC(=O)NCCc3ccccc3)c2=O)cc1	99.5
O=c1c(O)c(N2CCN(c3ccccc3F)CC2)c1=O	101.1
Cc1ccc(C)c(N2CCN(C(=O)c3ccc(S(=O)(=O)c4ccc(C)c(C)c4)nc3)CC2)c1	101.0
O=C(c1ccccc1)c1cccc2c1NCC2	81.0*	GIV-Gai FP conf=64.9;GIV-Gai AS conf=29262
O=C(c1ccccc1)c1ccccc1C(=O)N1CCN(c2ccccc2)CC1	101.1
O=C(c1ccccc1)c1ccccc1C(=O)N1CCCC1	104.4
Fc1ccccc1Nc1nc2ccccc2c2nncn12	105.4
CCOc1ccc(CCNC(=O)c2cc3oc4ccccc4c3n2CC)cc1OCC	104.7
Cn1c(SCc2ccccc2)nnc1-c1ccccc1	106.3
COc1ccccc1N1CCN(C(=O)CCc2nnc3c4cc(-c5ccccc5)nn4ccn23)CC1	109.0
Cn1c(-c2ccccc2)c(/C=C2/C(=O)Oc3ccccc3C2=O)c2ccccc21	44.5*	GIV-Gai FP conf=65.6;GIV-Gai AS conf=25749

Three entries already listed, sorted by length of the SMILES, ascending:
SMILES	GIV-Gai inh	others
Cn1c(SCc2ccccc2)nnc1-c1ccccc1	106.3
CCC(Sc1nnc2c3ccccc3nc(-c3ccccc3)n12)C(=O)NC(C)C (configuration not stated)	98.6
COc1ccccc1N1CCN(C(=O)CCc2nnc3c4cc(-c5ccccc5)nn4ccn23)CC1	109.0

Continuation:
SMILES	GIV-Gai inh	others
Cn1c(=O)cc(Cl)c2ccccc21	105.6
Cn1c(=O)c2c(c3ccccc31)OC(=O)CC2c1ccccc1 (configuration not stated)	110.8
O=C(Nc1cc(F)c2[nH]c(=O)ccc2c1)C1CC1	99.3
C/C(=N\NC(=O)C(F)(F)F)c1ccccc1O	93.5	GIV-Gai FP conf=72;GIV-Gai AS conf=56622
C/C(=N\N1C(=O)c2ccccc2C1=O)c1ccccc1O	98.4
C/C(=N/NC(=O)C(F)(F)F)c1cccs1	103.5
COC(=O)c1cccc(N2C(=O)/C(=C/c3ccc(OC)cc3)C=C2c2ccccc2)c1	112.9
Cc1ccc(C(c2nnnn2Cc2ccccc2)N2CCC(C)CC2)cc1 (configuration not stated)	96.8
CCc1ccc(CNC(=O)C2CCCN(c3ncnc4c3oc3ccccc34)C2)cc1 (configuration not stated)	95.3
O=C(Cc1ccccc1)NCCc1nc(-c2ccccc2)n[nH]1	98.6
O=C1/C(=C/c2cccnc2)CC/C1=C\c1cccnc1	89.5
O=C1/C(=C/c2cccnc2)CCC/C1=C\c1cccnc1	49.1*	GIV-Gai FP conf=53*;GIV-Gai AS conf=32981
O=C1/C(=C/c2ccccc2)CCCc2ccccc21	101.7
CCOC(=O)c1cc(-c2ccc(S(=O)(=O)N(Cc3cccs3)C3CCCCC3)s2)on1	110.5
COC(=O)c1c(-c2ccc(F)cc2)noc1NC1CCCC1	107.0
O=c1c2ccccc2nc(/C=C/c2c[nH]c3ccccc23)n1CCc1ccccc1	97.9
Nc1ccc2c(c1)C(=O)N(CCCCN1C(=O)c3ccc(N)cc3C1=O)C2=O	108.6
Nc1ccc2c(c1)C(=O)N(CCO)C2=O	89.6	GIV-Gai FP conf=63.4;GIV-Gai AS conf=44198
Nc1ccc2c(c1)C(=O)N(CCCC(=O)O)C2=O	102.0
CCOc1ccc(C(=O)/C=C/C(=O)O)cc1	98.5
COc1ccc(N2C(=O)/C(=C/c3ccc(OCC(=O)O)c(Br)c3)C(=O)NC2=S)cc1	78.5*	GIV-Gai FP conf=44.6*;GIV-Gai AS conf=20466*
COc1ccc(N2C(=O)NC(=O)/C(=C\c3ccc(OCC(=O)O)c(Br)c3)C2=O)cc1	95.6
COc1ccc(N2C(=O)/C(=C/c3ccc(OCC(=O)O)c(OC)c3)C(=O)NC2=S)cc1	102.5
Cc1cc(C(F)(F)F)c(C#N)c(SCC(=O)NCCc2ccccc2)n1	112.6
CC(C)(C)N=Cc1cc(-c2ccccc2)sc1S	111.2
Oc1sc(-c2ccccc2)cc1C=Nc1ccccc1	84.0*	GIV-Gai FP conf=74.4;GIV-Gai AS conf=45653
Oc1ccccc1C=Nc1cccc(N=Cc2ccccc2O)c1	99.7
CCOC(=O)CC1=C(C(=O)OCC)C(c2ccc([N+](=O)[O-])cc2)C(C#N)=C(N)O1 (configuration not stated)	108.3
CCOc1ccc(Nc2nc(C)c([N+](=O)[O-])c(N(C)c3ccccc3)n2)cc1	109.7
CN1CCN(C(=O)c2ccc3c(=O)n(CCC4=CCCCC4)c(=O)[nH]c3c2)CC1	102.5
O=C(CCN1C(=O)/C(=C/c2cccs2)SC1=S)N(CCO)Cc1ccccc1	116.1
O=C(N=Nc1c(O)[nH]c2ccccc12)c1cccnc1	102.9
O=C(N=Nc1c(O)[nH]c(=O)[nH]c1=O)c1ccccn1	105.3
O=C(N=Nc1c2ccccc2c2nc3no[nH]c3nc12)c1ccccc1O	77.3*	GIV-Gai FP conf=66.1;GIV-Gai AS conf=12405*
CSC1=NC(=Nc2ccccc2C)C2(CCC(C(C)(C)C)CC2)N1c1ccccc1 (configuration not stated)	102.0
Nc1nnc(SCC(=O)Nc2nnc(C(F)(F)F)s2)s1	103.6
Cc1cc(C)cc(NC(=O)c2oc3c(c2C)-c2[nH]ncc2CC3)c1	110.0
Cc1c(C(=O)NC(C)C)oc2c1-c1[nH]ncc1CC2	68.5*	GIV-Gai FP conf=51.2*;GIV-Gai AS conf=26222*
Cc1c(C(=O)O)oc2c1-c1[nH]ncc1CC2	98.1
O=C(CSc1nc(-c2ccccc2)no1)Nc1cccc(Cl)c1	104.0
Oc1ccc(NCc2cccs2)cc1	103.9
Cc1ccc(CNc2nc3ccccc3s2)s1	101.8
Cc1ccc(CNc2ccc(O)cc2)s1	75.1*	GIV-Gai FP conf=50.2*;GIV-Gai AS conf=9116*
CC(C)Nc1ccc(-c2nc(-c3ccco3)no2)cc1[N+](=O)[O-]	90.4	GIV-Gai FP conf=81.2;GIV-Gai AS conf=30875
CCCNc1ccc(-c2nc(-c3ccco3)no2)cc1[N+](=O)[O-]	96.0
CC(C)Nc1ccc(-c2nc(-c3ccncc3)no2)cc1[N+](=O)[O-]	102.4
COCc1cc(=O)n2c(n1)N(Cc1c(C)noc1C)CC2	99.3
O=C(COc1ccccc1)c1c[nH]c2ccccc12	157.5
O=C(CSc1nnc(C23CC4CC(CC(C4)C2)C3)o1)NCCOc1ccccc1	103.8
Cc1cccc(NC(=O)N2CCN(c3cc(=O)n4nc(-c5ccccc5C)sc4n3)CC2)c1	103.6
Cc1ccc(NC(=O)N2CCN(c3cc(=O)n4nc(-c5ccccc5C)sc4n3)CC2)cc1F	83.8*	GIV-Gai FP conf=79.9;GIV-Gai AS conf=26514
Cc1ccccc1-c1nn2c(=O)cc(N3CCN(C(=O)Nc4ccc(Cl)cc4)CC3)nc2s1	101.5
COC(=O)c1ccsc1NC(=O)c1ccc2c(c1)OCCO2	102.1
COC(=O)c1ccsc1NC(=O)c1cccc(S(C)(=O)=O)c1	105.7

3 records picked at random from those above, as already listed:
SMILES	GIV-Gai inh	others
CCCCN(C)CCCNC(=O)c1cc(-c2ccc(Br)s2)nc2ccccc12	105.9
Cn1c(=O)c2c(c3ccccc31)OC(=O)CC2c1ccccc1 (configuration not stated)	110.8
Oc1ccccc1C=Nc1cccc(N=Cc2ccccc2O)c1	99.7
